Target: T1, nAChR α4/β2 (Homo sapiens, UniProt P17787+P43681)
T1 construct: host or cells: HEK293 cells, transient
Experiment: cell-based
Settings: read-out: Normalized % Inhibition
Procedure: Briefly, cells were incubated with […] dye for 30 min at 37° C.

Protein sequences, listed by entry. Tags and fused reporters are not part of them. Residues count along the entry.
UniProt P17787, 26-502: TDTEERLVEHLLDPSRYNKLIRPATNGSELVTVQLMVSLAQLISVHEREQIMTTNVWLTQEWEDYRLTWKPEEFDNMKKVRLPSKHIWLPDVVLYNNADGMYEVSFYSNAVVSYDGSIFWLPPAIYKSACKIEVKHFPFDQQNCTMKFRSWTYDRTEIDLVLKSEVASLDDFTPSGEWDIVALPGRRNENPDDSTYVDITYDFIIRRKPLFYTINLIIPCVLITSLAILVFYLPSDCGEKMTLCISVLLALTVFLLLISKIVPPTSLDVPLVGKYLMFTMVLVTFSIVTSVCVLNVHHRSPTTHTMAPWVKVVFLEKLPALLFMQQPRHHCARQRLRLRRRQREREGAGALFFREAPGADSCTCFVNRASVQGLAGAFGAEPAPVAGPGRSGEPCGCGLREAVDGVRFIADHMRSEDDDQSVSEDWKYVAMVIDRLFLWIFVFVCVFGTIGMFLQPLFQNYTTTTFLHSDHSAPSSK
UniProt P43681, 29-627: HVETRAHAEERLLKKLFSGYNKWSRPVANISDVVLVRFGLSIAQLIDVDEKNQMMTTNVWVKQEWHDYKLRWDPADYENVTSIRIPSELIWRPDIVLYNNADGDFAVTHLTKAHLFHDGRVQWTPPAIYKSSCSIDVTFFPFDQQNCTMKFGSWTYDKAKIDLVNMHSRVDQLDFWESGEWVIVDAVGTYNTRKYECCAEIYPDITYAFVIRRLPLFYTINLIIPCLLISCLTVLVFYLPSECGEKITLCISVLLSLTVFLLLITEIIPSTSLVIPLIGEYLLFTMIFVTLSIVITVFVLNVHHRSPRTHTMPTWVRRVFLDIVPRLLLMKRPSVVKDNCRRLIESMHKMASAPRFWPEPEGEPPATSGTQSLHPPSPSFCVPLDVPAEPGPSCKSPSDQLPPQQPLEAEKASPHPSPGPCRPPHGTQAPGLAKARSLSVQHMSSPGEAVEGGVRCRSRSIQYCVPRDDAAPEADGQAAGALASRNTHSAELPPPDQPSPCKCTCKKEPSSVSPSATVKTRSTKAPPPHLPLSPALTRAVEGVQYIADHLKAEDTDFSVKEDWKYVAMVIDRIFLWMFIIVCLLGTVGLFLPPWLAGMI

## CN1CCCC1c1cccnc1.O=C(O)C(O)C(O)C(=O)O (single isomer, unassigned; (-)) [Nicotine, (−) Nicotine hydrogen tartrate]
  inhibition at 1 µM: 107%

From patent US20160030407A1, “Method of Treating Inflammatory Lung Disease” (priority 2010, published 2016)
